Data reported in US20250042918A1, “COMPOUNDS” (Fundación Del Sector Públlco Estatal Centro Nacional De …, priority 2021, published 2025).

The chains behind the UniProt entries cited, without tags or fusion partners.
UniProt P11309, whole entry: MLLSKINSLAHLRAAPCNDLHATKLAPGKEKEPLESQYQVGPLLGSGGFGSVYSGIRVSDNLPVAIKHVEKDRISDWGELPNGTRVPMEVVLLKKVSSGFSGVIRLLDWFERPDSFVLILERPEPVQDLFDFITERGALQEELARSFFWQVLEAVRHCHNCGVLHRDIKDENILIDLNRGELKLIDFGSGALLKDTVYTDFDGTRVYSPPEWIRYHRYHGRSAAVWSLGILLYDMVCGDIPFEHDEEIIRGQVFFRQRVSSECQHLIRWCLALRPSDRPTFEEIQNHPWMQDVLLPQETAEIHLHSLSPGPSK
UniProt Q9P1W9, whole entry: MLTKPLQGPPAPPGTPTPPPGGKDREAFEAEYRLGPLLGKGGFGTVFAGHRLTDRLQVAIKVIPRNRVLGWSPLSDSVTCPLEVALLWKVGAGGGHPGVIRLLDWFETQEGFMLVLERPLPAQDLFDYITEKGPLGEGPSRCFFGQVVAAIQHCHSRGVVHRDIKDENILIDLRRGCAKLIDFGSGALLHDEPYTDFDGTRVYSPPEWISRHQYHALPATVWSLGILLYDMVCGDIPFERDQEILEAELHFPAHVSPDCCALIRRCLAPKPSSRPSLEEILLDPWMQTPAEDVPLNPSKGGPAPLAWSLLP

How the values were obtained:
PIM-1 = PIM-1 (Homo sapiens, UniProt P11309); experiment: Protein PIM kinase assay (ADP Hunter Plus); settings: read-out: PIM-1 IC50; 100 μM ATP, 100 μM PIMtide
Protocol: (§1) PIM kinase activities were measured by using the commercial ADP Hunter™ Plus assay (DiscoveRx Ref. #33-016), a homogeneous assay measuring ADP accumulation, as a universal product of kinase activity. PIM-1 and PIM-2 proteins were obtained by purification as it is described by Martinez-Gonzalez et. al. Eur. J. Med Chem. 2019, 168, 87-109 and PIM-3 was acquired from Millipore (Cat #14-738). The assay was done following general manufacturer recommendations and adapting protein and substrates concentrations to optimal conditions. Kinase buffer was 15 mM HEPES, pH 7.4, 20 mM NaCl, 1 mM EGTA, 0.02% Tween-20, 10 mM MgCl2 and 0.1 mg/mL LBGG (bovine y-globulin). All PIM kinases assays were done at 100 μM PIM tide (ARKRRRHPSGPPTA), as peptide substrate, and 100 μM ATP. Protein concentration was 50, 350 and 200 pg/μl for PIM-1, 2 and 3, respectively. In order to calculate the IC50 of described compounds, serial 1:3 dilutions were prepared and the reaction started by addition of ATP. Incubation was done for 1 h at 25° C. Reagents A and B (DiscoveRx) were sequentially added to the wells and plates were incubated for 30 min at 37° C. Fluorescence counts were read in a Victor instrument (Perkin Elmer) with the recommended settings (544 and 580 nm as excitation and emission wavelengths, respectively). Values were plot against inhibitor concentration and fit to a sigmoid dose-response curve using Activity Base software from IDBS.

PIM-2 = PIM-2 (Homo sapiens, UniProt Q9P1W9); experiment: Protein PIM kinase assay (ADP Hunter Plus); settings: read-out: PIM-2 IC50; 100 μM ATP, 100 μM PIMtide
Protocol: as §1

PIM-3 = PIM-3 (Homo sapiens, UniProt Q86V86); experiment: Protein PIM kinase assay (ADP Hunter Plus); settings: read-out: PIM-3 IC50; 100 μM ATP, 100 μM PIMtide
Protocol: as §1

[1] = test system: BAD S112 phosphorylation in H1299 cells overexpressing PIM-1 (H1299Pim1); experiment: BAD S112 phosphorylation inhibition assay (in Cell ELISA); settings: read-out: BAD PH 1299PIM 1 ELIWO, 4 hours, medium without FBS
Protocol: The efficacy of the compounds of the invention on the inhibition of BAD phosphorylation was measured by an in Cell ELISA.
Materials: H1299 cells overexpressing PIM-1 (H1299Pim1). DMSO Plates: 96-well-Polystyrene, Untreated, Round-Bottom plates from Costar (Cat #3797). Cell Plates: 96-Flat bottom biocoated with Poly-D-Lysin plates with lid from Becton Dickinson (Cat #354651). Cell Culture Medium: DMEM high glucose, 10% Fetal Bovine Serum, 2 mM L-Glutamine, P/S. Antibodies: phospho BAD S112 antibody from Cell Signaling (cat. #9291S), anti-rabbit conjugated with peroxidase from Amersham (cat. #3619). Reagent: SuperSignal ELISA femto from Pierce (cat. #1001110).
Procedure: Cells were seeded in 15000 cells per 200 μl per well into 96-well plates and incubated for 16 h at 37° C., 5% CO2. On day two, nine serial 1:2 compound dilutions were made in DMSO in a 96-well plate. The compounds were added to duplicate wells in 96-well cell plates using a FX BECKMAN robot (Beckman Coulter) and were incubated at 37° C. under CO2 atmosphere in medium without fetal bovine serum (FBS). After 4 hours, relative levels of BAD S112 phosphorylation were measured in Cell ELISA using SuperSignal ELISA Femto substrate (Pierce) and read on VICTOR (Perkin Elmer). EC50 values were calculated using ActivityBase from IDBS.

IC50 (PIM-1): 1 to 5 nM
IC50 (PIM-2): 5 to 10 nM
IC50 (PIM-3): 10 to 50 nM
EC50 [1]: > 10000 nM
SMILES: CN1CCOc2c1c(N[C@H]1CC[C@H](O)CC1)nn1c(-c3cccc(OC(F)(F)F)c3)nnc21
